From US20220218641A1 (Concert Pharmaceuticals, Inc., priority 2019, published 2022)

Type: in vivo, male Sprague Dawley rats
Conditions: separate experiment

Row | SMILES | PK parameters, Compound 100 compared with Compound 103
1 | [2H]C([2H])(O)[C@@]([2H])(N)C(=O)O [Compound 103, (2R)-2-amino-2,3,3-tri-deutero-3-hydroxy-propanoic acid] | similar
2 | [2H][C@@](N)(CO)C(=O)O [Compound 100, (2R)-2-amino-2-deutero-3-hydroxy-propanoic acid] | similar
